Reference: publication PMC5624946, “Extrapyramidal side effects of antipsychotics are linked to their association kinetics at dopamine D2 receptors” (Nature Communications, 2017)
Where a name gives a salt, the structure may show the parent alone.

Protein sequences, listed by entry. Tags and fused reporters are not part of them. Lines headed by an entry give the natural chain unless they say otherwise; changes in a name come on top.
UniProt P14416, whole entry: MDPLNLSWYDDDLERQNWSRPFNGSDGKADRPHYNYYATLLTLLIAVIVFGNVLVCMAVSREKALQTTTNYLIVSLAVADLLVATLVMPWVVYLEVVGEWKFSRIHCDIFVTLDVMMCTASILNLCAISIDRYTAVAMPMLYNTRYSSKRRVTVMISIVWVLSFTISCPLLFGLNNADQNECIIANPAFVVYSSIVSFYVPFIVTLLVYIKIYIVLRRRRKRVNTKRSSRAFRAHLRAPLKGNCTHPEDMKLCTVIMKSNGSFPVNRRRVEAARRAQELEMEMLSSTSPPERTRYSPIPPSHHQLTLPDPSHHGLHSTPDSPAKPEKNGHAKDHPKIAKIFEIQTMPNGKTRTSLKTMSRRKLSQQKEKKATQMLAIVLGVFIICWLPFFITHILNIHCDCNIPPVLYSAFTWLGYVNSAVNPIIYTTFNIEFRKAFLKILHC

Tests used:
[1] = target: T1, human D2L receptors (Homo sapiens, UniProt P14416); assay: biochemical
[2] = target: T1, human D2L receptors; assay: Equilibrium competition binding with PPHT-red (TR-FRET)
[3] = target: T1, human D2L receptors; assay: Competition kinetic binding with PPHT-red tracer (TR-FRET, Motulsky-Mahan); settings: dissociation half-life from k off

Row | Kd [1] [nM] | Ki [2] [nM] | t 1/2 [3] [s] | Compound
1 | 0.832 | 1.23 |  | CCN1CCC[C@H]1CNC(=O)c1c(O)c(Cl)cc(Cl)c1OC [Raclopride, raclopride]
2 |  |  | 29.4 | CSc1ccc2c(c1)N(CCC1CCCCN1C)c1ccccc1S2 (stereo not drawn) [Thioridazine, thioridazine hydrochloride]
